Assay [1] can be described thus: qHTS assay for identifying genotoxic compounds that show differential cytotoxicity against isogenic chicken DT40 cell lines with known DNA damage response pathways - Rev3 mutant cell line (AID 743014). Also: nearly all actives have a fitted effect of over 55% in size. Also: potency is read from the fitted curve at half-maximal effect. Background: Quantitative high-throughput screening tests each substance at several concentrations.
The nature of assay [2]: qHTS assay to identify small molecule antagonists of the androgen receptor (AR) signaling pathway - cell viability counter screen (AID 743033; also: nearly all actives have a fitted effect of over 45% in size). The following applies: AR-bla HEK293 viability, CellTiter-Glo luminescence, 16 h.
Assay [3] can be described thus: qHTS assay to identify small molecule antagonists of the androgen receptor (AR) signaling pathway using the MDA cell line - cell viability counter screen (AID 743041; also: nearly all actives have a fitted effect of over 45% in size). The following applies: MDA-kb2 viability, CellTiter-Fluor, 16 h, cells co-treated with R1881 androgen agonist. An outline of the steps:
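qHTS viability read-out; MDA-kb2 AR-luc; R1881-stimulated; 16 h exposure at 37C, 0% CO2; CellTiter-Fluor, 30 min; fluorescence intensity.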

Sequences of proteins named here, by UniProt entry; tags and fusion partners are left off.
UniProt P03372, whole entry: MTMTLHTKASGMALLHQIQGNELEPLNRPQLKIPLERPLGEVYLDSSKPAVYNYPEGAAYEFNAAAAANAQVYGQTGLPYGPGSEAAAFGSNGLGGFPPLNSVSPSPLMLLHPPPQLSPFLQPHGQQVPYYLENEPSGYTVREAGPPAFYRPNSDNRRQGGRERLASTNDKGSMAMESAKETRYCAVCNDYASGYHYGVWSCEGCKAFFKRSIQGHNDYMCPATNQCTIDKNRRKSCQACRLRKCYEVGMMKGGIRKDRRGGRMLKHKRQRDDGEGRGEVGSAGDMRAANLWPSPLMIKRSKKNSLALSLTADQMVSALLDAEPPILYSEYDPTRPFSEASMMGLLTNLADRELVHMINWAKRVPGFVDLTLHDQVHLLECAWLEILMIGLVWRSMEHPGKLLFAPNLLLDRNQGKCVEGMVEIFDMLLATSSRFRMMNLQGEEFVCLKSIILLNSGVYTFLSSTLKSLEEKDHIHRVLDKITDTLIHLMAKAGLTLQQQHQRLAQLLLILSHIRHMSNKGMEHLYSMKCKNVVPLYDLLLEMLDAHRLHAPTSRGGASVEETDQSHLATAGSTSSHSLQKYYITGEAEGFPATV
UniProt P11511, whole entry: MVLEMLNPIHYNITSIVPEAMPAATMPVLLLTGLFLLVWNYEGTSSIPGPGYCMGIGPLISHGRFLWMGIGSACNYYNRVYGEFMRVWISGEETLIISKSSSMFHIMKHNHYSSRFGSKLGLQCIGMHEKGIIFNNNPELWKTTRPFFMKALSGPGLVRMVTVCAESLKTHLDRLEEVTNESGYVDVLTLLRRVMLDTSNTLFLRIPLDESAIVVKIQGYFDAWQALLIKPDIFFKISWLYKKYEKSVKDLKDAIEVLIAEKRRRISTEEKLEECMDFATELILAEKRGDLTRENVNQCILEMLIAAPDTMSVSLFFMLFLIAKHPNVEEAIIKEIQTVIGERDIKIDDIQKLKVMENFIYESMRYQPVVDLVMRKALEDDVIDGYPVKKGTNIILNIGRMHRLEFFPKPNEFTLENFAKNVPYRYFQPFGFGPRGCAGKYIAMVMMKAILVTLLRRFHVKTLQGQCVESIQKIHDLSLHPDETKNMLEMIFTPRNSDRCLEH
UniProt P37231, whole entry: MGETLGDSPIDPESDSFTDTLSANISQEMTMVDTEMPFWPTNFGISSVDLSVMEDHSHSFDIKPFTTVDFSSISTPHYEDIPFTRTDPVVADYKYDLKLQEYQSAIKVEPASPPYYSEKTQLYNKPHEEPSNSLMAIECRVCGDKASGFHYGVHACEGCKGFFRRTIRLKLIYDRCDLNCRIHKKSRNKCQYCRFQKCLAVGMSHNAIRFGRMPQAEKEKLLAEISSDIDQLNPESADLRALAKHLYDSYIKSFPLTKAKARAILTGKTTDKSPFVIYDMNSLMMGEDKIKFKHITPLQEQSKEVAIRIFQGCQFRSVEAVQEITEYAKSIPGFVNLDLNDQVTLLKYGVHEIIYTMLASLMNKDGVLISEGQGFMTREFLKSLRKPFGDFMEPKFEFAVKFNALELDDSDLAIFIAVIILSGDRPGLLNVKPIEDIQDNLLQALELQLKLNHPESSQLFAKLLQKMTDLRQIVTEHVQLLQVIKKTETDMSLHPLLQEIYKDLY
UniProt P10275, whole entry: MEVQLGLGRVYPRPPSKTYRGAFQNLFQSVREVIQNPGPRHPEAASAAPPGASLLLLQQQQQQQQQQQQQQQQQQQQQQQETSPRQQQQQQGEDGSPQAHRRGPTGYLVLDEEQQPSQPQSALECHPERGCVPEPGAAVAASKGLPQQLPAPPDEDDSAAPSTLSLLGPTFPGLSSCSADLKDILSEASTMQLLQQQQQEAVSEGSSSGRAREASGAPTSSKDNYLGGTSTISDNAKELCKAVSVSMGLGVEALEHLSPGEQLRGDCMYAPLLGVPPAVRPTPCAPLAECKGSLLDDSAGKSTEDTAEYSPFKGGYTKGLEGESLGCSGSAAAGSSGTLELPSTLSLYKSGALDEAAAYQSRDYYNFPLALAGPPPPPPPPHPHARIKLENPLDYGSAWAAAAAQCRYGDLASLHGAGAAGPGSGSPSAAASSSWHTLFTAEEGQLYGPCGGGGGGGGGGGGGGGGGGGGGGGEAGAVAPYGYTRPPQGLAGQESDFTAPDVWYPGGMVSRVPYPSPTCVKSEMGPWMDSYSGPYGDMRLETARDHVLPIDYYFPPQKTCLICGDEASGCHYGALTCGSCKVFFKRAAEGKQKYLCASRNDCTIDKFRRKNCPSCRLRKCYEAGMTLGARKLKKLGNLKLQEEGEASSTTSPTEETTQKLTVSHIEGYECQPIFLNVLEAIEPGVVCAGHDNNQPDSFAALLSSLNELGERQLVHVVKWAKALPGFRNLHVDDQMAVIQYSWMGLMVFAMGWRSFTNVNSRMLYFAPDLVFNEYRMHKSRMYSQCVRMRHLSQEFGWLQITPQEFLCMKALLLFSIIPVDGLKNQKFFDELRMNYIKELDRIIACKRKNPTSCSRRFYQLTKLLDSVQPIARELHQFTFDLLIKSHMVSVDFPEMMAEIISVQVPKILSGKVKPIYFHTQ
UniProt P35869, whole entry: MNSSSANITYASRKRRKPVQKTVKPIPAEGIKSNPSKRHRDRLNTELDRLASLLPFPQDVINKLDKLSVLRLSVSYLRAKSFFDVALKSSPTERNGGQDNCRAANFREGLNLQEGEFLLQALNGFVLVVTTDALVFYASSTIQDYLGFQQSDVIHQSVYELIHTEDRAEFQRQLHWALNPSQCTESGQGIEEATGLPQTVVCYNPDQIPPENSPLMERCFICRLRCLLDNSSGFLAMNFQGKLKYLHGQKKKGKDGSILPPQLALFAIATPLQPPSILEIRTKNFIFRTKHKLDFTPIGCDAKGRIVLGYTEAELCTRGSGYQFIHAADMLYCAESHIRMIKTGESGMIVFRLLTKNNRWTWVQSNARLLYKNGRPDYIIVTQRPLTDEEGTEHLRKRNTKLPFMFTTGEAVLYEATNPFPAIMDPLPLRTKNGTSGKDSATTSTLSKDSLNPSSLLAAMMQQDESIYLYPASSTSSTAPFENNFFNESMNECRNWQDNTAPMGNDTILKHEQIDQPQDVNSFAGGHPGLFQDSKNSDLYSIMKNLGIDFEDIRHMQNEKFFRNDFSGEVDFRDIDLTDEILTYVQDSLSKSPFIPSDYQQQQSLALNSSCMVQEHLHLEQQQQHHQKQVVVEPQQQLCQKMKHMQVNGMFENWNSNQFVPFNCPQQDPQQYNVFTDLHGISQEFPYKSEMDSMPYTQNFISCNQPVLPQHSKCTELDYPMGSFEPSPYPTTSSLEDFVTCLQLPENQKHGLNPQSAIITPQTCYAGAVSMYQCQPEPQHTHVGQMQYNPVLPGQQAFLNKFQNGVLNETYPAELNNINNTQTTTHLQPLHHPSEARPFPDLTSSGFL

The nature of assay [4]: qHTS assay to identify small molecule antagonists of the thyroid receptor (TR) signaling pathway - cell viability counter screen (AID 743064). Also: nearly all actives have a fitted effect of over 50% in size. The essentials: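 Rat GH3 pituitary tumor cells stably expressing two TR response elements driving luciferase were plated, rested 4 h, then dosed with library compounds and T3 (1 nM final). After 23.5 h at 37 °C, CellTiter-Fluor was added for 30 min and fluorescence recorded.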

Assay [5] relates to thyroid hormone receptor (rat, GH3 cells). As to the kind of experiment: qHTS assay to identify small molecule agonists of the thyroid receptor (TR) signaling pathway (AID 743066; calls by dose curve). The following applies: GH3.TRE-Luc cells, TR agonist luciferase, 24 h.
The nature of assay [6]: qHTS assay to identify small molecule antagonists of the estrogen receptor alpha (ER-alpha) signaling pathway - cell viability counter screen (AID 743074; calls by dose curve;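 also: HEK293 cells carrying ER-alpha-UAS-bla reporter stimulated with 17beta-estradiol; nearly all actives have a fitted effect of over 45% in size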). The following applies: ERalpha-bla HEK293 viability, CellTiter-Glo luminescence, 18 h.
In assay [7] the target is Estrogen receptor (Homo sapiens) (UniProt P03372). As to the kind of experiment: qHTS assay to identify small molecule agonists of the estrogen receptor alpha (ER-alpha) signaling pathway (AID 743075; calls by dose curve;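 also: HEK293 GripTite cells with ER-alpha and UAS-driven beta-lactamase reporter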). The following applies: HEK293 ER-alpha-UAS-bla, beta-lactamase FRET ratio, 18 h; at 70.1 µM (top of the series).
Assay [8] has the same target. Briefly: qHTS assay to identify small molecule agonists of the estrogen receptor alpha (ER-alpha) signaling pathway using the BG1 cell line (AID 743079). Also: nearly all actives have a fitted effect of over 20% in size.
The nature of assay [9]: qHTS assay to identify small molecule antagonists of the estrogen receptor alpha (ER-alpha) signaling pathway using the BG1 cell line (AID 743080; calls by dose curve;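 also: BG1 cells stimulated with 17beta-estradiol alongside compound; nearly all actives have a fitted effect of over 25% in size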). The following applies: BG1Luc4E2 ERE-luciferase antagonist mode, luminescence. An outline of the steps:
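BG1-Luc-4E2 cells (endogenous full-length ER-alpha, 4xERE luciferase) hormone-starved 5 days in charcoal-stripped FBS, plated 4,000/well for 24 h, then compound plus 17beta-estradiol for 21.5 h at 37 C; ONE-Glo luminescence read.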

A short description of assay [10]: qHTS assay to identify small molecule antagonists of the estrogen receptor alpha (ER-alpha) signaling pathway using the BG1 cell line - cell viability counter screen (AID 743081).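 Also: compound given together with 17beta-estradiol as the ER stimulus; nearly all actives have a fitted effect of over 45% in size.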
For assay [11], the target named is Aromatase (Homo sapiens) (UniProt P11511). As to the kind of experiment: qHTS assay to identify aromatase inhibitors (AID 743083). Also: nearly all actives have a fitted effect of over 55% in size. The following applies: MCF-7 aro ERE, testosterone-driven ERE luciferase, 24 h.
Assay [12] in a line: qHTS assay to identify aromatase inhibitors - cell viability counter screen (AID 743084).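 Also: cells stimulated with testosterone during compound exposure; nearly all actives have a fitted effect of over 55% in size.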 The following applies: MCF-7 aro ERE viability, CellTiter-Fluor, 24 h.
A short description of assay [13]: qHTS assay to identify small molecule that activate the aryl hydrocarbon receptor (AhR) signaling pathway - cell viability counter screen (AID 743086). The essentials:
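HepG2-AhR-luc (HG2L7.5c1) cells, 4000/well, were preincubated 5 h at 37C, exposed to compound in qHTS format for 24 hr at 37C, then given CellTiter-Fluor for 30 min; viability was read as fluorescence in the reporter wells.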

Assay [14] deals with Peroxisome proliferator-activated receptor gamma (Homo sapiens) (UniProt P37231). As to the kind of experiment: qHTS assay to identify small molecule agonists of the peroxisome proliferator-activated receptor gamma (PPARg) signaling pathway (AID 743094; active = well fitted activation curve with a large enough effect in the signal ratio in the repeat runs, not every such curve was filed as active; the % refers to the signal ratio). The following applies: HEK293H PPARg-UAS-bla, beta-lactamase FRET ratio, 17 h. The essentials:
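Reporter activation was scored by fluorescence of cleaved LiveBLAzer B/G substrate (1 h, room temperature) in PPARg-bla HEK293H cells previously treated 17 h at 37C with DMSO-dissolved compounds.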

The target is the same in assay [15]. Briefly: qHTS assay to identify small molecule antagonists of the peroxisome proliferator-activated receptor gamma (PPARg) signaling pathway (AID 743191; calls by dose curve; also: nearly all actives have a fitted effect of over 30% in size). The essentials:
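GeneBLAzer PPARg UAS-bla HEK293H cells carrying a UAS-driven beta-lactamase reporter were plated at 3000 cells/well, preincubated 5 h at 37C, then given compound for 17 h at 37C; LiveBLAzer B/G FRET substrate was read after 1 h at room temperature.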

The target of assay [16] is Androgen receptor (Homo sapiens) (UniProt P10275). As to the kind of experiment: qHTS assay to identify small molecule antagonists of the androgen receptor (AR) signaling pathway (AID 743035; active = well fitted inhibition curve with a large enough effect in the signal ratio in the repeat runs, not every such curve was filed as active; the % refers to the signal ratio). The following applies: HEK293 AR-UAS-bla, R1881-stimulated, beta-lactamase FRET, 16 h; at 58.5 µM (top of the series) unless noted.
Assay [17] shares this target. As to the kind of experiment: qHTS assay to identify small molecule agonists of the androgen receptor (AR) signaling pathway (AID 743036; active = well fitted activation curve with a large enough effect in the signal ratio in the repeat runs, with a control signal flat, not every such curve was filed as active; the % refers to the signal ratio). The following applies: HEK293 AR-UAS-bla GripTite, beta-lactamase FRET ratio, 16 h; at 62.4 µM (top of the series) unless noted.
The target is the same in assay [18]. Briefly: qHTS assay to identify small molecule agonists of the androgen receptor (AR) signaling pathway using the MDA cell line (AID 743040; also: nearly all actives have a fitted effect of over 20% in size). The following applies: MDA-kb2 AR-luc cells, MMTV luciferase, 16 h, hits give high values; at 70.3 µM (top of the series) unless noted.
Assay [19] has the same target. Briefly: qHTS assay to identify small molecule antagonists of the androgen receptor (AR) signaling pathway using the MDA cell line (AID 743042; also: nearly all actives have a fitted effect of over 55% in size). The following applies: MDA-kb2 AR-luc, MMTV luciferase, R1881 antagonist, 16 h; at 70.3 µM (top of the series) unless noted.
The target of assay [20] is Aryl hydrocarbon receptor (Homo sapiens) (UniProt P35869). Briefly: qHTS assay to identify small molecule that activate the aryl hydrocarbon receptor (AhR) signaling pathway (AID 743085).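 Also: HG2L7.5c1 human HepG2 liver cells with stably integrated DRE-driven firefly reporter; nearly all actives have a fitted effect of over 15% in size.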

These results are taken from PubChem BioAssay (Tox21).

SMILES strings stand for the structures. Where “and” joins values, the source holds several entries; their conditions need not be identical. Identical values can stand only once. Only a part is listed here, and it is no random draw. Results filed as inconclusive are left out. Calls of active or inactive are those of the source. Unless noted, calls follow the shape of the dose curve; as a rule, active = well fitted curve in the direction sought with a large enough effect in the repeat runs; inconclusive = weak or mixed curves; inactive = no such curve, though single readings can be large; an effect the other way counts as inactive or inconclusive.
% is scaled to controls: 0 for no effect and ±100 for the full control effect.

Consider `COc1ccc([N+](=O)[O-])cc1[N+](=O)[O-]`, for which the Potency in assay [1] is active: 54.5 µM. For the same compound, the activity change, negative = cytotoxicity was inactive: 0.0533% in assay [2] (at 58.5 µM (top of the series)) and inactive: 15% in assay [12] (at 70.3 µM (top of the series)). Also, in [3] (at 70.3 µM (top of the series)), the viability change, negative = cytotoxic is inactive: 0.342%. For the same compound, the Potency entry in assay [4], in assay [8], in assay [10], in [13] and in assay [15] was “inactive” throughout. The activation was inactive: -1.66% in [5] (at 83.9 µM (top of the series)), inactive: -4.5% in [7] and inactive: 0.365% in [14] (at 57 µM (top of the series)). Also, in assay [6] (at 69.4 µM (top of the series)), the activity, negative = cytotoxicity was inactive: -2.7%. Moreover, in assay [9] (at 70.3 µM (top of the series)), the activity change, negative = inhibition was inactive: 0.466%. The activity, negative = inhibition in assay [11] (at 70.3 µM (top of the series)) was inactive: 8.43%.

As for `CC(C)N(CCO)C(C)C`, the Potency result in assay [1], in assay [4], in assay [10], in assay [20] and in assay [13] was “inactive” in each case. For the same compound, the results for the activity change, negative = cytotoxicity in [2] (at 58.5 µM (top of the series)) and in [12] (at 70.3 µM (top of the series)) were inactive: -4.84% and inactive: 11.9%, respectively. Further, the activity change, negative = inhibition in assay [16] is inactive: -12.7%; in assay [19], inactive: 5.3%; in assay [9] (at 70.3 µM (top of the series)), inactive: -0.504%. Besides, the activation is inactive: -2.61% in assay [17], inactive: -0.644% in assay [5] (at 83.9 µM (top of the series)) and inactive: 3.93% in [14] (at 57 µM (top of the series)). Also, the activity change in assay [18] is inactive: 2.02%. In assay [3] (at 70.3 µM (top of the series)), the viability change, negative = cytotoxic was inactive: -24.7%. Also, in assay [6] (at 69.4 µM (top of the series)), the activity, negative = cytotoxicity was inactive: -8.02%. The activity, negative = inhibition in [11] (at 70.3 µM (top of the series)) was inactive: 2.4%.

Regarding `O=[N+]([O-])[O-].[NH4+]`, the Potency entry in assay [1], in assay [4], in assay [10], in assay [20] and in assay [13] was “inactive” throughout. Also, in assay [2] (at 58.5 µM (top of the series)), the activity change, negative = cytotoxicity was inactive: 0.323% and inactive: -1.36% and inactive: -31.5%. In addition, the viability change, negative = cytotoxic in assay [3] (at 70.3 µM (top of the series)) was inactive: -2.15% and inactive: 3.03% and inactive: 0.102%. The activity, negative = cytotoxicity in assay [6] (at 69.4 µM (top of the series)) was inactive: 9.13% and inactive: 12.4% and inactive: 25.2%. In assay [9] (at 70.3 µM (top of the series)), the activity change, negative = inhibition was inactive: -2.92% and inactive: -1.09% and inactive: 0.517%. In [14] (at 57 µM (top of the series)), the activation is inactive: 0.177% and inactive: 0.0469% and inactive: 2.34%.

As to `CCOC(=O)Cl`, the Potency entry in assay [15] is “inactive”.

With `Cc1ccc([N+](=O)[O-])cc1[N+](=O)[O-]`, the Potency result in assay [1], in assay [4], in assay [8], in assay [10], in assay [20] and in [13] was “inactive” each time. Further, the activity change, negative = cytotoxicity in assay [2] (at 58.5 µM (top of the series)) was inactive: 0.0754% and inactive: 1.92%; in assay [12] (at 70.3 µM (top of the series)), inactive: -2.88% and inactive: 22.9%. For the same compound, in assay [3] (at 70.3 µM (top of the series)), the viability change, negative = cytotoxic was inactive: -5.17% and inactive: 3.6%. The activation in assay [5] (at 83.9 µM (top of the series)) was inactive: -0.114% and inactive: 6.21%; in assay [14] (at 57 µM (top of the series)) it was inactive: 0.493% and inactive: -0.0352%. In addition, the activity, negative = cytotoxicity in assay [6] (at 69.4 µM (top of the series)) is inactive: -18.4% and inactive: 8.45%. In assay [9] (at 70.3 µM (top of the series)), the activity change, negative = inhibition is inactive: 3.01% and inactive: 9.44%. For the same compound, the activity, negative = inhibition in [11] (at 70.3 µM (top of the series)) is inactive: 1.49% and inactive: 10.8%.

With `CCOP(=O)(CC)OCC`, the Potency entry in [1], in assay [4], in assay [10], in assay [20], in [13] and in assay [15] was “inactive” each time. For the same compound, the activity change, negative = cytotoxicity in assay [2] (at 58.5 µM (top of the series)) is inactive: 4.22%; in assay [12] (at 70.3 µM (top of the series)) it was inactive: 14.7%. For the same compound, the viability change, negative = cytotoxic in assay [3] (at 70.3 µM (top of the series)) is inactive: 0.716%. Further, the values for the activation in [5] (at 83.9 µM (top of the series)) and in assay [14] (at 57 µM (top of the series)) were inactive: 0.152% and inactive: 6.07%, respectively. For the same compound, the activity, negative = cytotoxicity in [6] (at 69.4 µM (top of the series)) is inactive: 10.9%. Further, the activity change, negative = inhibition in assay [9] (at 70.3 µM (top of the series)) was inactive: 0.917%. In addition, the activity, negative = inhibition in assay [11] (at 70.3 µM (top of the series)) was inactive: -1.26%.

`OCCSCCO`: the Potency entry in assay [1], in assay [4], in [10], in assay [20] and in assay [13] was “inactive” throughout. The activity change, negative = cytotoxicity in assay [2] (at 58.5 µM (top of the series)) is inactive: -1.87%; in [2] (at 78.9 µM (top of the series)) it was inactive: 0.328%; in [12] (at 70.3 µM (top of the series)), inactive: -4.49%; in [12] (at 95 µM (top of the series)), inactive: -1.37%. The viability change, negative = cytotoxic in assay [3] (at 70.3 µM (top of the series)) was inactive: -8.39%; in [3] (at 95 µM (top of the series)) it was inactive: 26.7%. In addition, the activation in assay [5] (at 83.9 µM (top of the series)) is inactive: 0.821%; in assay [5] (at 95.2 µM (top of the series)) it was inactive: 0.948%; in assay [14] (at 57 µM (top of the series)) it was inactive: -0.353%; in assay [14] (at 78.9 µM (top of the series)), inactive: -0.166%. For the same compound, the activity, negative = cytotoxicity in [6] (at 69.4 µM (top of the series)) is inactive: 10.6%; in assay [6] (at 79.1 µM (top of the series)), inactive: -12.6%. In addition, the activity change, negative = inhibition is inactive: 6.45% in [9] (at 70.3 µM (top of the series)) and inactive: -8.35% in assay [9] (at 95 µM (top of the series)). The activity, negative = inhibition in assay [11] (at 70.3 µM (top of the series)) is inactive: 8.5%; in [11] (at 95 µM (top of the series)) it was inactive: 27.9%.
